Each molecule was assayed against T1, PI3Kδ (p110δ/p85α) (Homo sapiens, UniProt O00329) (assay: PI3Kδ scintillation proximity assay). Conditions: 20 μM ATP, 4 nM PI3Kδ.
T1 construct: purchased Millipore (Bedford, Mass.)
Type: biochemical
Excerpt: Example A: PI3Kδ Scintillation Proximity Assay
Materials: [γ-^33P]ATP (10 mCi/mL) was purchased from Perkin-Elmer (Waltham, Mass.). Lipid kinase substrate, D-myo-Phosphatidylinositol 4,5-bisphosphate (PtdIns(4,5)P2)D (+)-sn-1,2-di-O-octanoylglyceryl, 3-O-phospho linked (PIP2), CAS 204858-53-7, was purchased from Echelon Biosciences (Salt Lake City, Utah). PI3Kδ (p110δ/p85α) was purchased from Millipore (Bedford, Mass.). ATP, MgCl2, DTT, EDTA, MOPS and CHAPS were purchased from Sigma-Aldrich (St. Louis, Mo.). Wheat Germ Agglutinin (WGA) YSi SPA Scintillation Beads was purchased from GE healthcare life sciences (Piscataway, N.J.).
The kinase reaction was conducted in polystyrene 384-well matrix white plate from Thermo Fisher Scientific in a final volume of 25 μL. Inhibitors were first diluted serially in DMSO and added to the plate wells before the addition of other reaction components. The final concentration of DMSO in the assay was 0.5%. The PI3K assays were carried out at room temperature in 20 mM MOPS, pH 6.7, 10 mM MgCl2, 5 mM DTT and CHAPS 0.03%. Reactions were initiated by the addition of ATP, the final reaction mixture consisted of 20 μM PIP2,20 μM ATP, 0.2 μCi [γ-^33P] ATP, 4 nM PI3Kδ. Reactions were incubated for 210 minutes and terminated by the addition of 40 μL SPA beads suspended in quench buffer: 150 mM potassium phosphate pH 8.0, 20% glycerol. 25 mM EDTA, 400 µM ATP. The final concentration of SPA beads is 1.0 mg/mL. After the plate sealing, plates were shaken overnight at room temperature and centrifuged at 1800 rpm for 10 minutes, the radioactivity of the product was determined by scintillation counting on Topcount (Perkin-Elmer). IC50 determination was performed by fitting the curve of percent control activity versus the log of the inhibitor concentration using the GraphPad Prism 3.0 software.

By UniProt entry, the sequences of proteins in these tests, tags left out. Where a name states a change or a piece, a line headed by the entry shows the natural chain unless it says otherwise.
UniProt O00329, whole entry, species assumed: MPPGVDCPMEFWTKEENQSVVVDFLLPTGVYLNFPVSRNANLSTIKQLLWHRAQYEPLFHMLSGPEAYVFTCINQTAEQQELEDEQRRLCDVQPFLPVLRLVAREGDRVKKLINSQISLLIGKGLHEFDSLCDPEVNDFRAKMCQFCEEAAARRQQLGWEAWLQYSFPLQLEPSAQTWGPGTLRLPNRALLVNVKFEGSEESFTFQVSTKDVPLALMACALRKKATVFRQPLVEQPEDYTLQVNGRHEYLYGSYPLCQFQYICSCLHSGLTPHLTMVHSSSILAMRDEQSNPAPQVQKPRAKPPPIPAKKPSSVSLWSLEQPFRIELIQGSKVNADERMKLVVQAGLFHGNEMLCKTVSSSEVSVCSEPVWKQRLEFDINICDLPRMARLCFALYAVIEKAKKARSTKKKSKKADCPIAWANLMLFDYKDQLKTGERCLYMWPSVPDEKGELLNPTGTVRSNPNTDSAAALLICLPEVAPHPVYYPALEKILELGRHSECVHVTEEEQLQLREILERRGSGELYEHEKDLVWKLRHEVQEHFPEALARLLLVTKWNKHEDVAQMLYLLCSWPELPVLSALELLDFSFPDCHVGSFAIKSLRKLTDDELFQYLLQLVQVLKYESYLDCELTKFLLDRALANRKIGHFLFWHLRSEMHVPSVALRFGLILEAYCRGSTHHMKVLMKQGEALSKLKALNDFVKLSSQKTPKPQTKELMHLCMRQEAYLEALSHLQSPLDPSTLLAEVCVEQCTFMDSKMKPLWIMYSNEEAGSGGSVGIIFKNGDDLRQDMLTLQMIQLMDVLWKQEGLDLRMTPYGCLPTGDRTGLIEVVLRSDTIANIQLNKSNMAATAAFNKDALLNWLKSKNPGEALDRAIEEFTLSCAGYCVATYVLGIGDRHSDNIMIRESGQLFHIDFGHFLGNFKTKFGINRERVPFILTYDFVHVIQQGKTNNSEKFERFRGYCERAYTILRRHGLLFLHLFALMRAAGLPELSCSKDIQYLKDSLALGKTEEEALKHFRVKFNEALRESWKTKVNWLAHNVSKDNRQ

IC50 | Structure (SMILES)
< 50 nM | COc1c(C(C)Nc2ncnc3[nH]cnc23)cc(Cl)c(C)c1-c1ccc(S(C)(=O)=O)cc1 (stereo not shown) [Example 32, N-{1-[5-chloro-2-methoxy-6-methyl-4′-(methylsulfonyl)biphenyl-3-yl]ethyl}-9H-purin-6-amine]
< 50 nM | Cc1c(Cl)cc(C(C)Nc2ncnc3[nH]cnc23)c(-c2cccc(F)c2)c1-c1cnn(C)c1 (stereo not shown) [Example 73, N-{1-[4-chloro-3′-fluoro-5-methyl-6-(1-methyl-1H-pyrazol-4-yl)biphenyl-2-yl]ethyl}-9H-purin-6-amine]
< 50 nM | COc1c(C(C)Nc2ncnc3[nH]cnc23)cc(Cl)c(C)c1-c1ccc(S(C)(=O)=O)cc1 (single isomer, unassigned) [Example 116, N-{1-[5-chloro-2-methoxy-6-methyl-4′-(methylsulfonyl)biphenyl-3-yl]ethyl}-9H-purin-6-amine]
< 50 nM | COc1c(C(C)Nc2ncnc3[nH]cnc23)cc(Cl)c(C)c1-c1cncc(S(C)(=O)=O)c1 (stereo not shown) [Example 56, N-(1-{5-chloro-2-methoxy-4-methyl-3-[5-(methylsulfonyl)pyridin-3-yl]phenyl}ethyl)-9H-purin-6-amine]
